From patent US20220362343A1, “METHOD OF REDUCING TET2 MUTANT ALLELE BURDEN” (PharmaEssentia Corporation, priority 2021, published 2022)

Columns and labels:
Format in all cases: in vivo, human
[1] = system: patients with polycythemia vera; assay: Complete hematological response (CHR), modified ELN criteria, PROUD-PV/CONTINUATION-PV
From the text: (§1) PROUD-PV was a phase III, randomized, controlled, multicenter study conducted in 47 centers across Europe to compare ropeginterferon alpha-2b to hydroxyurea in patients with polycythemia vera. CONTINUATION-PV is the ongoing extension study of PROUD-PV.
Patients with polycythemia vera diagnosed using 2008 World Health Organization criteria who were either cytoreduction-naïve or hydroxyurea pre-treated without resistance or intolerance were enrolled. In PROUD-PV, patients were randomized 1:1 to receive ropeginterferon alpha-2b or hydroxyurea for one year. Thereafter, patients could roll over into CONTINUATION-PV. Treatment arms remained as allocated in PROUD-PV, but patients in the HU arm could switch to best-available therapy (BAT). Complete hematological response (CHR) was assessed according to modified European LeukemiaNet (ELN) criteria: (1) hematocrit <45% with no phlebotomy for ≥3 months; (2) platelet count <400×10^9/L; (3) leukocyte count <10×10^9/L.
(§2) Next generation sequencing (NGS; TruSight™ Myeloid Panel, Illumina) was performed to detect non-driver mutations. All patients enrolled in CONTINUATION-PV were included in an interim efficacy analysis over 36 months by non-driver baseline mutational status.

JAK2V617F allele burden = assay: JAK2V617F molecular response and allele burden, PROUD-PV/CONTINUATION-PV
Method: as §1
Molecular response (MR) with respect to JAK2V617F allele burden was assessed according to European LeukemiaNet criteria.
as §2

[2] = system: TET2 variant allele burden; assay: TET2 variant allele burden by next generation sequencing, PROUD-PV/CONTINUATION-PV; details: TET2mut patients, baseline 32.4%
From the text: TET2 mutations can be assayed in blood samples or blood cells using methods known in the art, e.g., sequencing or PCR. TET2 mutant allele burden (%) can also be determined using methods known in the art. Allele burden represents the percentage of mutant TET2 alleles present among all TET2 alleles in blood cells, e.g., peripheral blood mononuclear cells. More specifically, a TET2 allele burden can be at least 5%, e.g., about 5%, 10%, 15%, 20%, 25%, is 30%, 35%, 40%, 45%, 50%, 55%, 60% or more.
as §1, §2

Substance: ropeginterferon alpha-2b
- CHR achieved, % of patients ([1]; TET2mut patients (n=10), 24 months): 60.0%
- CHR achieved, % of patients ([1]; TET2mut patients (n=10), 36 months): 70.0%
- CHR achieved, % of patients ([1]; TET2 wt patients (n=82), 24 months): 72.0%
- CHR achieved, % of patients ([1]; TET2 wt patients (n=82), 36 months): 70.7%
- JAK2V617F molecular response rate (JAK2V617F allele burden; TET2mut patients, 24 months): 50.0%
- JAK2V617F molecular response rate (JAK2V617F allele burden; TET2mut patients, 36 months): 50.0%
- Mean JAK2V617F allele burden (JAK2V617F allele burden; TET2mut patients, during treatment, reduced from 51.3%): 31.8%
- JAK2V617F molecular response rate (JAK2V617F allele burden; TET2 wt patients, 24 months): 70.7%
- JAK2V617F molecular response rate (JAK2V617F allele burden; TET2 wt patients, 36 months): 68.3%
- JAK2V617F molecular response rates, TET2mut versus TET2 wt patients (JAK2V617F allele burden; comparison of subgroups, P>0.05): no significant difference
- absolute JAK2V617F allele burden or relative change in allele burden, TET2mut versus TET2 wt subgroups (JAK2V617F allele burden; during treatment): no significant difference
- mean TET2 variant allele burden ([2]; month 12): 24.2%
- mean TET2 variant allele burden ([2]; month 24, reduction p=0.047): 20.0%
- mean TET2 variant allele burden ([2]; month 36 (only 3 patients with NGS data)): 17.3%
